scFv variants of Ab-14 (heavy chain) against a SARS-CoV-2 spike peptide

From the AlphaSeq antibody data of Li et al. 2023 (doi:10.1038/s41467-023-39022-2), copy in the FLAb collection.

Binding partner: SARS-CoV-2 spike HR2 peptide, sequence PDVDLGDISGINAS.

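The parent was found by panning a naive human phage display library on the peptide. The variants were designed computationally from a first round of random CDR variants and then made and measured. Several design methods are mixed in this list. AlphaSeq pools MATa yeast showing the antibodies with MATalpha yeast showing the peptide. Pairs that bind mate more often; barcode pairs of the diploids are counted by sequencing. The ratio of observed to expected reads was calibrated, replicate by replicate, on BCL2-family standards whose Kd was known from biolayer interferometry. The assay was run in six technical replicates.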

Each scFv is VH, a (GGGGS)3 linker, VL, as in the parent Ab-14, and differs from it in the CDRs of the heavy chain only.
VH: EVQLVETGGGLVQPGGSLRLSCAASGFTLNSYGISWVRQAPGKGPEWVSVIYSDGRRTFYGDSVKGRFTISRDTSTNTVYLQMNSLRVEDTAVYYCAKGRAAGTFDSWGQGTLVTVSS
VL: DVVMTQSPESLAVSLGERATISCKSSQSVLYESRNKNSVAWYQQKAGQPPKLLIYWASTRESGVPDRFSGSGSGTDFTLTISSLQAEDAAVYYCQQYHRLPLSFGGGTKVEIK

Each variant is given by its three heavy chain CDRs, as the data file delimits them; those of the parent are GFTLNSYGIS, VIYSDGRRTFYGDSVK, GRAAGTFDS. This list holds designs with at most six substitutions. Values are apparent Kd, the geometric mean of the replicates that gave a signal; lower means stronger binding. Where no diploid with the target was found in any replicate, the entry reads "no signal": below detection, most likely a poor binder, though not proof of it.

For GFSLNSYGIS / VIYSDGRRTFYADRVK / GKAAGTFDS, the assay gave 30 nM (5 of 6 replicates). Variant YFTLNEYGIS / VIYSDGRRTFYGDSVK / GRTAGTFDT gave 99 nM (1 of 6 replicates). With GFDLNSYGIS / VIYSDGRRTFYSDNVK / GRAAFTFDS the result was no signal (0 of 6 replicates). Variant GFTLDSGGIS / VIYSDGRRTFYGDHVK / GRAAGTALS gave 26 nM (1 of 6 replicates). Variant GFSLNEYGIS / VIYSDGRRTFYGDSVK / GRTAGTFDA gave no signal (0 of 6 replicates). Variant GFSLNEYGIS / VIYSDGRRTFYIDQVK / GRAAGTFDS showed 1.5 nM (6 of 6 replicates). Variant GFSLNSYGIS / VIYSDGKRTFYADSVK / GRTAGTFDS gave 2.4 nM (6 of 6 replicates). For GFNLNSYGIS / VIYSDGRRTFYKDSVK / GSTAGTFDS, the assay gave 1.7 nM (6 of 6 replicates).

For GFHLNEYGIS / VIYSDGRRTAYKDSVK / GNAAGTFDS, the assay gave 6.5 nM (6 of 6 replicates). For WFELNSYGIS / VIYSDGRRTFYADSVK / GRTAGTFDS, the assay gave no signal (0 of 6 replicates). Variant GFQLNSYGIS / VIYSDGRRTFYSDSVK / GRAAGTFDS showed 4.0 nM (12 of 12 replicates). For GFTLNDYGIS / VIYSDGRRTFYGDSFK / GRAEGTWDS, the assay gave 3.4 nM (6 of 6 replicates). With GFTLNDYGIS / VIYSDGRRTHYGDSVK / VRAAGTFDS the result was no signal (0 of 6 replicates). For GFTLESYGIS / VIYSDGRRTFYADSVK / GKAAGTFDV, the assay gave 13 nM (6 of 6 replicates). With GFTLNSYGIS / VIYADGRRTFYGDSVK / GRAARTNAS the result was no signal (0 of 6 replicates). Variant GFALNEYGIS / VIYSDGRRTFYGDSVK / GEAAGTFDS showed 580 pM (5 of 6 replicates).

With GFTLNSYGIS / VIYADGLRTFYSDSVK / GRTAGKFDS the result was no signal (0 of 6 replicates). With GFSLNSYGIS / VIYSDGRRTFYGDAVK / GRLAGTFDS the result was 1.0 nM (6 of 6 replicates). With GFTLNSYGIS / VIYSDGRRTFYGDSVK / LRAAGTFDS the result was 41 nM (1 of 6 replicates). With GFTLNSYGIS / VIYSDGRRTFYSDSVK / GKAAGTFDS the result was 11 nM (5 of 6 replicates). Variant GFTLNDYGIS / VIYSDGRRTFYGESVK / GRTAGTFDA showed 21 nM (6 of 6 replicates). Variant GFTMNSYGIS / VIYSDGRRTFYDDSVK / IRAYGTFDS gave no signal (0 of 6 replicates). For GFTLNSYGIS / VIYSDGRRTFMGDSVK / GRAAVTFDS, the assay gave no signal (0 of 6 replicates). With GFDLNSYGIS / VIYSDGRRTFYGDSVK / GRAAGLFNS the result was no signal (0 of 6 replicates).

Variant GFTLNSYGIS / VIYSDGRRTFYGDSVK / GRMAGTNEL gave no signal (0 of 6 replicates). Variant GFTLNSYGIS / VIYSDGRRTFYSDDVK / GEAAGTFKS showed 39 nM (5 of 6 replicates). Variant GFTLNSYGIS / VIYSDGRRTFYGDSVK / GKYAGHGDS showed 270 nM (1 of 6 replicates). With GFTLNEYGIS / VIYSDQRRNFYGDSVK / GRAAGTFDL the result was no signal (0 of 6 replicates). For GFELNSYGIS / VIYSDGRRTFYGDSVK / GHAAGTFDL, the assay gave 18 nM (6 of 6 replicates). For KFTLNSYGIS / VIYSDGKRTFYGDSVK / GRVAGTFDS, the assay gave 150 nM (5 of 6 replicates). With GFVLNSYGIS / VIYSDGRRTFYADSVK / GQVAGTFDS the result was 1.3 nM (6 of 6 replicates). For GFDLNSYGIS / VIYSDGRRTFYGDDVK / GRIAGTFDS, the assay gave 3.0 nM (6 of 6 replicates).

With GFTLNSYGIS / VIYSDGRRTFYADSVK / GQAAGTFDS the result was 5.6 nM (6 of 12 replicates). For GFQLNSYGIS / VIYSDGRRTFYQDSVK / GHAAGTFDS, the assay gave 61 nM (5 of 6 replicates). With GFELNSYGIS / VIYSDGRRTFYGDNVK / GMQAGTFDS the result was 7.5 nM (6 of 6 replicates). With GFDLNSYGIS / VIYSDGRRTFYGDSVK / GRAAGFFTS the result was no signal (0 of 6 replicates). Variant GFDLNSYGIS / VIYSDGRRTFYVDQVK / GRNAGTFDS showed 11 nM (6 of 6 replicates). For GFQLNEYGIS / VIYSDGRRTFYGDSVK / GRQAGTFDA, the assay gave 1.9 nM (6 of 6 replicates). Variant GFHLNSYGIS / VIYADGRRTFYGDSVK / GRAAGTNDS gave no signal (0 of 6 replicates). With GLTLNSYGIS / VIYADGMRTFYGDSVK / GRAAGPFDS the result was 730 nM (1 of 6 replicates).

The last 4 entries again:

CDR-H1	CDR-H2	CDR-H3	Kd (apparent)	seen in
GFDLNSYGIS	VIYSDGRRTFYVDQVK	GRNAGTFDS	11 nM	6/6
GFQLNEYGIS	VIYSDGRRTFYGDSVK	GRQAGTFDA	1.9 nM	6/6
GFHLNSYGIS	VIYADGRRTFYGDSVK	GRAAGTNDS	no signal	0/6
GLTLNSYGIS	VIYADGMRTFYGDSVK	GRAAGPFDS	730 nM	1/6

The range of this assay differs from that of the first round, and the authors advise against merging the two. The authors averaged sequences with at least three values out of six and counted those with two or fewer as poor binders. Background: pairings of all heavy chain designs with three empty control strains gave a value in 1% of cases (median 120 nM, 5th percentile 7.0 nM). Values in that range, when seen in few replicates, are hard to tell from nonspecific mating. Some sequences occur more than once in the pool; their replicates are pooled.